Test results as given in patent US4871727A, “Anti-inflammatory and antidegenerative compounds isolated from L-681,512” (Merck & Co, Inc., priority 1987, dated 1989).
Values after ≈ are worked out from the molar mass of the structure shown.

Amino acid sequences for entries named in this document (tags omitted). Residues count along the entry.
UniProt P08246, 30-247 limits assumed: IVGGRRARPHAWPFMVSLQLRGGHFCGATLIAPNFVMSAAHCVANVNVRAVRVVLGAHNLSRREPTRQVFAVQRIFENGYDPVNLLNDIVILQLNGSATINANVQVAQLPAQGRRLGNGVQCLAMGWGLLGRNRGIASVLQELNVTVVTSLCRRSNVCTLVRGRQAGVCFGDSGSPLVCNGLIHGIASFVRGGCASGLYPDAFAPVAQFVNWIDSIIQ

Biological target: Human Polymorphonuclear Leukocyte Elastase (Homo sapiens, UniProt P08246)
Experiment: Inhibition of human polymorphonuclear leukocyte (PMN) elastase via hydrolysis of N-t-Boc-alanyl-alanyl-prolyl-alanine-p-nitroanilide (two point or "zero time" assay)
Type: biochemical
Details: 50% inhibition of the enzyme activity 2 minutes after zero time; crude human PMN extract; 0.2 mM Boc-AAPAN, pH 7.5, 410 nm
Excerpt: It is generally understood that the enzyme of interest is that enzyme against which the inhibitory activity of the fermentation broth samples are being determined and quantified (e.g., PMN elastase). Consequently, all of the remaining wells are charged with the same enzyme of interest. However, several enzymes of interest can be charged to a plurality of wells, and the wells grouped together to facilitate separate identification and assay. When this is done, separate control wells must then also be prepared to correspond to the different enzymes of interest.
The chromogenic medium is charged to all the wells at substantially the same time and the time of this addition is noted. This is the "zero time" mentioned earlier as it is from that moment that a predetermined time lapse is measured during which sufficient reaction between the fermentation broth samples and the enzyme of interest occurs to enable not only accurate screening of enzyme inhibitory activity, but also the degree of that activity. Naturally, the predetermined time lapse will differ with different enzymes and can be from about 1 minute to about 20 minutes, typically from about 2 minutes to about 10 minutes. […]
To 1.0 ml of 0.2 mM Boc-AAPAN in a cuvette, 0.01-0.1 ml of DMSO with or without inhibitor was added. […] 0.05 Milliliters of PMN extract was then added and the ΔOD/min at 410 nm was measured and recorded. […]

| Compound | ED50 |
| --- | --- |
| CC(=O)O[C@H]1[C@H](O)C2=C(CC[C@@H]3C2(C)C[C@@H](OC(=O)CCCCCCCCCCCCCCCO)[C@H](OS(=O)(=O)O)C3(C)C)C2=CC[C@H](C(C)CCC3(C(C)(C)O)CO3)C21C (some centres unmarked) | 1.7 µg/mL (≈ 1.93 µM) |
| CC(=O)O[C@H]1[C@H](O)C2=C(CC[C@@H]3C2(C)C[C@@H](OC(=O)CCCCCCCCCCCCCCCO)[C@H](OS(=O)(=O)O)C3(C)C)C2CC[C@H](C(C)CCC3(C(C)(C)O)CO3)C21C (some centres unmarked) | 1.4 µg/mL (≈ 1.59 µM) |
